Values quoted from earlier work, collected in patent US20010051628A1, “METHODS TO MODULATE THE RESISTANCE OF CELLS TO APOPTOSIS MEDIATED BY MUTANT EPIDERMAL GROWTH FACTOR RECEPTORS” (priority 1998, published 2001).

Target: ΔEGFR (Homo sapiens, UniProt P00533, DELINS30-297G)
Details: cited from earlier work

SMILES: COc1cc2ncnc(Nc3cccc(Cl)c3)c2cc1OC [AG1478]
- specificity for inhibition of ΔEGFR, relative to wt EGFR: more than 10 fold
